Test results taken from PMC11022890 (Drug Metabolism and Disposition, 2021).

What was measured:
[1] = system: UGT2B4 in human kidney microsomes; experiment: Inhibition of codeine glucuronidation
[2] = molecular target: T1, UGT1A9 in human liver microsomes (Homo sapiens, UniProt O60656); conditions: UGT1A9 substrates propofol, furosemide, acetaminophen
T1 sequence (O60656 26-530): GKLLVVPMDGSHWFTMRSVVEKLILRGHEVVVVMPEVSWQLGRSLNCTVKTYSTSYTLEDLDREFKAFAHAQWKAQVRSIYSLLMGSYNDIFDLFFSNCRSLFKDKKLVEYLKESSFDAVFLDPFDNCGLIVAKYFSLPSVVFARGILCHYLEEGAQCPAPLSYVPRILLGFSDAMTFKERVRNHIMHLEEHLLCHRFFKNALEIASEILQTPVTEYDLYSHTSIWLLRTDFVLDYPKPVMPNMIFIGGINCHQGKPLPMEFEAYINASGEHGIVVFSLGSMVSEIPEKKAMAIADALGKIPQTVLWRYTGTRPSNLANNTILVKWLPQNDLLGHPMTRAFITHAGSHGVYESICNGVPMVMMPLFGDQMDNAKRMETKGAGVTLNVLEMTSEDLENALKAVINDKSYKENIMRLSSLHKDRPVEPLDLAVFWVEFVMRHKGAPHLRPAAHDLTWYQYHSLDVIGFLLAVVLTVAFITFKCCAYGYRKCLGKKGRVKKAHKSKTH

UGT1A9 = molecular target: T2, UGT1A9 (Homo sapiens, UniProt O60656); experiment: Inhibition of propofol glucuronidation in rUGT1A9 microsomes; type: in vitro ADME
T2 sequence (O60656 26-530): T1 sequence (O60656 26-530)

UGT2B7 [3] = molecular target: T3, UGT2B7 (Homo sapiens, UniProt P16662); experiment: biochemical; conditions: rUGT2B7 microsomes
T3 sequence (P16662 24-529): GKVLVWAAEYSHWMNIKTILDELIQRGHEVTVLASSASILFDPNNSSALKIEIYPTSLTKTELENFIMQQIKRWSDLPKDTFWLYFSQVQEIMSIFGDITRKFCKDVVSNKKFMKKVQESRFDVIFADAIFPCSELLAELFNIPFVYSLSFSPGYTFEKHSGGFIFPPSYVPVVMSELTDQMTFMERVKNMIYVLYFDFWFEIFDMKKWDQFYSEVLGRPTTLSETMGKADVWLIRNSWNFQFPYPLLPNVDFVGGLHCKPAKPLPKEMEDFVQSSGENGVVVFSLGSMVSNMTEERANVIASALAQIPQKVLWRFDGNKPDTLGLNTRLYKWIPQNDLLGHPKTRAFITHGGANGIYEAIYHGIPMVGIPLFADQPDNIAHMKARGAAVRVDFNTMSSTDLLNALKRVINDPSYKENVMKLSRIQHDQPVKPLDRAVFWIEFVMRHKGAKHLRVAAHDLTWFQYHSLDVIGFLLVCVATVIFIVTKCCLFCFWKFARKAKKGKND

UGT2B7 [4] = molecular target: T3, UGT2B7; conditions: 100 µM; rUGT2B7 microsomes; zidovudine; screening in duplicate
[5] = molecular target: T4, UGT2B7 in human kidney microsomes (Homo sapiens, UniProt P16662); experiment: Inhibition of AZT glucuronidation; conditions: HKM
T4 sequence (P16662 24-529): T3 sequence (P16662 24-529)

[6] = molecular target: T5, UGT2B7 in human liver microsomes (Homo sapiens, UniProt P16662); experiment: Inhibition of AZT glucuronidation; conditions: HLM
T5 sequence (P16662 24-529): T3 sequence (P16662 24-529)

UGT2B4 = molecular target: T6, UGT2B4 (Homo sapiens, UniProt P06133); experiment: Inhibition of codeine glucuronidation in rUGT2B4 microsomes; type: in vitro ADME
T6 sequence (P06133 24-528): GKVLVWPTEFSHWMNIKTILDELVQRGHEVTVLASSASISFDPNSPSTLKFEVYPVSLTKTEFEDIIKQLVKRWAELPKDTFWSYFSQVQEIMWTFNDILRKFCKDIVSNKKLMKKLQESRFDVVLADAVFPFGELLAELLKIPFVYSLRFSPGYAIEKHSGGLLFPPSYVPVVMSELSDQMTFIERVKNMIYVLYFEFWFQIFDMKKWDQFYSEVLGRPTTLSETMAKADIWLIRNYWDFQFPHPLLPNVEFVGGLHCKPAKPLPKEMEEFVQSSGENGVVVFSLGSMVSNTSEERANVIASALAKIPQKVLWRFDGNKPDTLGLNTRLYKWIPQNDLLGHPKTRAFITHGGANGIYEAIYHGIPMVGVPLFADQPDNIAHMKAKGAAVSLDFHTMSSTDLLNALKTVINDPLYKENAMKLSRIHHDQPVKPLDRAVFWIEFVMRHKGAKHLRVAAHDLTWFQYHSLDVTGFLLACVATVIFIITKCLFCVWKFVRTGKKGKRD

[7] = IC50,u (binding-corrected IC50), probe substrate AZT

SMILES	codeine glucuronidation IC50 in HKMs relative to rUGT2B4 microsomes (higher) [1]	IC50 in HLMs relative to rUGT1A9 microsomes (higher) [2]	inhibition (decrease of relative activity vs control without cannabinoid) (UGT1A9; 100 µM, rUGT1A9 microsomes, propofol, screening in duplicate) [%]	IC50 of UGT1A9 relative to UGT2B7 in rUGT microsomes (lower) (UGT1A9) [fold]	IC50 (UGT2B7 [3]; IC50, probe substrate AZT) [µM]	IC50 (UGT2B7 [3]; [7]) [µM]	inhibition (decrease of relative activity vs control without cannabinoid) (UGT2B7 [4]) [%]	IC50 ([5]; IC50, probe substrate AZT) [µM]	IC50 [5, 7] [µM]	IC50 ([6]; IC50, probe substrate AZT) [µM]	IC50 [6, 7] [µM]	inhibition (decrease of relative activity vs control without cannabinoid) (UGT2B4; 100 µM, rUGT2B4 microsomes, codeine, screening in duplicate) [%]	IC50 in rUGT2B4 microsomes relative to rUGT2B7 microsomes (lower) (UGT2B4; rUGT microsomes)
C=C(C)[C@@H]1CCC(C)=C[C@H]1c1c(O)cc(CCCCC)cc1O [CBD, cannabidiol]	5–7 fold	approximately 3 fold	98	6	21 ± 3.9	0.82 ± 0.15	96	35 ± 3.5	2.2 ± 0.22	30 ± 4.1	1.5 ± 0.21	94	approximately 3.6 fold
CCCCCc1cc(O)c2c(c1)OC(C)(C)c1ccc(C)cc1-2 [CBN, cannabinol]	–	approximately 3 fold	–	6	49 ± 12	4.2 ± 1.1	–	57 ± 7.5	6.9 ± 0.9	59 ± 8.6	5.5 ± 0.79	–	–
